Two molecules from patent US20150376286A1 (Amgen, published 2015) can be followed below.

Chains of the proteins cited; added tags and fusions are not shown. A line that says so, or that is headed by a name, gives the form on record, which may keep a tag or linker. Residues count along the entry.
UniProt P30988, 25-474, chain 1 of 2: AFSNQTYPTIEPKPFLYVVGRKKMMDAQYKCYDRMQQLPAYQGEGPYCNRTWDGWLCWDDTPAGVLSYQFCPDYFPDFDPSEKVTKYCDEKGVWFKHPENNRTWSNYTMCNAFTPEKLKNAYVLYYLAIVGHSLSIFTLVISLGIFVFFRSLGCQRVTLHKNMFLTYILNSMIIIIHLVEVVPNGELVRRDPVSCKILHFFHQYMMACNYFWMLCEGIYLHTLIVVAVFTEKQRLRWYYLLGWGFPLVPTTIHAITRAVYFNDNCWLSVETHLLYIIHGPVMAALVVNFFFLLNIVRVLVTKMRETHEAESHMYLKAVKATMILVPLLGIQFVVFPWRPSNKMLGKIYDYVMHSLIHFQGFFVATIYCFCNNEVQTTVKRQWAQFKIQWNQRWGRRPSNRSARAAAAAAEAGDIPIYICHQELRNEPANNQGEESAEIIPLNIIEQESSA
UniProt O60894, 27-148 limits assumed: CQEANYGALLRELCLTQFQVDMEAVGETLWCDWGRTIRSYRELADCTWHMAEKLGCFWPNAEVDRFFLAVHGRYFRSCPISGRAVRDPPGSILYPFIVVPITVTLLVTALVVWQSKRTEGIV
UniProt Q63118, 24-464 limits assumed, chain 1 of 2: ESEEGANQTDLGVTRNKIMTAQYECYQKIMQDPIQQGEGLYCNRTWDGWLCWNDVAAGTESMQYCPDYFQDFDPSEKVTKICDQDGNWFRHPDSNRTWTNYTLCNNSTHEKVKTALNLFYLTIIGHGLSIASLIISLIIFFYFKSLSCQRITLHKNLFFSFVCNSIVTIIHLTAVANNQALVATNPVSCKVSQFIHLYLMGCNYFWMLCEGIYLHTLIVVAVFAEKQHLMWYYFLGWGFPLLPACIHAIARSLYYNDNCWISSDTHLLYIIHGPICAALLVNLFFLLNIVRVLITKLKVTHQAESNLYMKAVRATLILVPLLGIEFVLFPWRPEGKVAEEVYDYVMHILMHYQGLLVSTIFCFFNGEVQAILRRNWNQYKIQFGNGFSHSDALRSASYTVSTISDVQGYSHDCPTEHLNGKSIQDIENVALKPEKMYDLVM
UniProt Q9JJ74, 27-148 limits assumed, chain 2 of 2: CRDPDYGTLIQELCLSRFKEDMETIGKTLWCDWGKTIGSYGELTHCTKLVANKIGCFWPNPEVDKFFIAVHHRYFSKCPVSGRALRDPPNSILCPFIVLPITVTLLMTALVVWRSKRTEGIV
UniProt O60895, 43-175: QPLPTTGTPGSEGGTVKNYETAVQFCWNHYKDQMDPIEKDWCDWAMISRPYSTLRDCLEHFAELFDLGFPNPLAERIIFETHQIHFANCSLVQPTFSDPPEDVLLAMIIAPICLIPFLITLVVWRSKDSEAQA
UniProt O60896, 24-148: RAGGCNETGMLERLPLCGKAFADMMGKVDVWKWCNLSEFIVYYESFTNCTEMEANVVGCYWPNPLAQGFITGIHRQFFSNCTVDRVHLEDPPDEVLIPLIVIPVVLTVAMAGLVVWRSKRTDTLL
human amylin AMY1 receptor (hCTR + hRAMP1), one chain, as listed by the source, chain 2 of 2: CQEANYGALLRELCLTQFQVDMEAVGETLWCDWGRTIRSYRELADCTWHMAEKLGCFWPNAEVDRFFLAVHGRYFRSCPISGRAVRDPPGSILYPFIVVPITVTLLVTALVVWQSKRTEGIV

Experiment [1] has as its target human amylin AMY1 receptor (hCTR + hRAMP1) (human, UniProt P30988). Put plainly: cell-based or functional assay.
For experiment [2], the target named is T1, human CGRP receptor (CRLR + RAMP1) (human, UniProt Q16602; O60894, in part). Put plainly: cell-based or functional assay.
The target in another experiment is rat CGRP receptor (rat, UniProt Q63118; Q9JJ74, in part). Put plainly: cell-based or functional assay.
The target of experiment [3] is T2, cynomolgus CGRP receptor (cynoCRLR + cynoRAMP1) (cynomolgus monkey).
T2 chain 1: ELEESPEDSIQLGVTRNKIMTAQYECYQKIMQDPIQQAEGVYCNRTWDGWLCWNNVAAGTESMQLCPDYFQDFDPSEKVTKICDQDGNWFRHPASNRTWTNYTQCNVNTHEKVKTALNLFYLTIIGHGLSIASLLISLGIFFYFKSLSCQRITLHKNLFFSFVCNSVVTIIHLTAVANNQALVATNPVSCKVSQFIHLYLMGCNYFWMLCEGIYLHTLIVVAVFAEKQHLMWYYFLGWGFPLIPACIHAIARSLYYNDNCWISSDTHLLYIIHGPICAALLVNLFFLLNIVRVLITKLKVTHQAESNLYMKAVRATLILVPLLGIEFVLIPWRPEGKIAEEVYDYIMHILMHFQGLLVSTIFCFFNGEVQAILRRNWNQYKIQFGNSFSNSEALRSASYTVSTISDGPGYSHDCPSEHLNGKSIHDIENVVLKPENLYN
T2 chain 2: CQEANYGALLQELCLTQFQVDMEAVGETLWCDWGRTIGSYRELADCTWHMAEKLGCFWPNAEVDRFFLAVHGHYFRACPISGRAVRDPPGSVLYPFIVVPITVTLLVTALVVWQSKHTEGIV
Put plainly: cell-based or functional assay.

Experiment [4] concerns the target human adrenomedullin receptor 1 (hCRLR + hRAMP2) (human, UniProt O60895, in part). Put plainly: cell-based or functional assay.
In experiment [5] the target is human adrenomedullin receptor 2 (hCRLR + hRAMP3) (human, UniProt O60896, in part). Put plainly: cell-based or functional assay.
For experiment [6], the target named is T1, human CGRP receptor (CRLR + RAMP1). Put plainly: 125I-CGRP competition binding, HTB-10 cell membranes. How it is done:
The plates were incubated at room temperature for 2 hours with shaking at 60 rpm, and then the contents of each well were filtered over 0.5% polyethyleneimine (PEI)-treated (for at least one hour) GF/C 96-well filter plates. The GF/C filter plates were washed six times with ice-cold 50 mM Tris, pH 7.5 and dried in an oven at 55° C. for 1 hour. The bottoms of the GF/C plates were then sealed. 40 μl Microscint™ 20 was added to each well, the tops of the GF/C plates were sealed with TopSeal™-A (a press-on adhesive sealing film), and the GF/C plates were counted with TopCount NXT (Packard). The data were analyzed using Prizm (GraphPad Software Inc.)

Numbering of substitutions follows the chain as printed.

B1: 11D11 (antibody, human IgG2, lambda, V domains shown)
VH: EVQLVESGGGLVKPGGSLRLSCAASGFTFGNAWMSWVRQAPGKGLEWVGRIKSKTDGGTTDYAAPVKGRFTISRDDSKNTLYLQMNSLKTEDTAVYFCTTDRTGYSISWSSYYYYYGMDVWGQGTTVTVSS
VL: QSVLTQPPSASGTPGQRVTISCSGSSSNIGSNYVYWYQQLPGAAPKLLIFRNNQRPSGVPDRFSGSKSGTSASLAISGLRSEDEADYYCAAWDDSLSGWVFGGGTKLTVLG
notes: also called 11D11.1
Regarding B1, the “cAMP assay IC50” value in experiment [1] was > 1000 nM; in experiment [2], 4.93 nM; with rat CGRP receptor, > 1000 nM; in experiment [3], 3.85 nM; in experiment [4], > 1000 nM; in experiment [5] it was > 1000 nM. Further, in experiment [6], the Ki was 0.044 nM.

B2: 11H9 (antibody, human IgG2, lambda, V domains shown)
VH: B1 VH with F97Y
VL: B1 VL
notes: also called 11H9.1
For B2, the “cAMP assay IC50” value in experiment [1] is > 1000 nM; in experiment [2], 4.56 nM; with rat CGRP receptor, > 1000 nM; in experiment [3], 5.07 nM; in experiment [4], > 1000 nM; in experiment [5], > 1000 nM. Moreover, the inhibition constant Ki in experiment [6] amounted to 0.057 nM.
